System: rat conjunctival goblet cells
Assay: Goblet cell proliferation, WST tetrazolium assay (Example 3A, Fluorescence Assay)
Type: cell-based
Settings: 10^−7 to 10^−8M
From the text: Conjunctival tissue from the fomical area and the nictitating membranes were removed from male Sprague Dawley rats. Tissue pieces were placed in explant culture in RPMI supplemented with fetal bovine serum (FBS). Over several days cells grew out of the explant and proliferated. Non-goblet cells, predominantly fibroblasts, were removed by scraping. Goblet cells were allowed to grow and proliferate for several days. Cells were removed from the tissue culture vessel by trypsin treatment. The number of cells was counted using a coulter counter. For measurement of proliferation 200 cells were seeded onto 96 well plates. […]
Goblet cells from passage 1 or 2 cultured as above were used for measurement of proliferation. […] Cellular proliferation was measured using WST-1((2-(4-Iodophenyl)-3-(4-nitrophenyl)-5-(2,4-disulfophenyl)-2H-tetrazolium, sodium salt) and WST-8 (2-[2-methoxy-4- nitrophenyl]-3-[4-nitrophenyl]-5-[2,4-disulfophenyl]-2H- tetrazolium, monosodium salt), tetrazolium salts, that indicate the number of cell present based on the presence of active mitochondria. WST compound was added to each well and the amount of yellow color read using a fluorescence spectrophotometer at 465 nm. An increase in absorbance (OD) indicated an increase in cell number. Conditions were run in quintuplicate on cells from at least 3 different animals.

Thyroid-stimulating hormone-alpha: Thyroid-stimulating hormone-alpha
effect on goblet cell proliferation: small increase in proliferation
